Test results published in patent US9962369B2, “Methods and compositions for transdermal delivery” (SPRAYABLE HOLDINGS, INC., priority 2014, dated 2018).
Values belong to the compound of their own block, whether it stands above or below them.

Tested on: human skin tissue
Assay: Penetration rate of AI compound in AI-helper composition through human skin in vitro, modified Franz cells
Settings: for Skin penetration rate of melatonin: melatonin 1% w/v, 20° C.

Skin penetration rate of AI compound (with D-tryptophan isopropyl ester hydrochloride 6 % w/v in water, AI compound 0.5 % w/v, 25 °C): 13.131 ± 2.102 μg/cm^2/h
Skin penetration rate of AI compound (with L-tryptophan isopropyl ester hydrochloride 6 % w/v in water, AI compound 0.5 % w/v, 25 °C): 13.341 ± 2.762 μg/cm^2/h
Structure (SMILES): CC1=C(/C=C/C(C)=C/C=C/C(C)=C/C=C/C=C(C)/C=C/C=C(C)/C=C/C2=C(C)C(=O)[C@@H](O)CC2(C)C)C(C)(C)C[C@H](O)C1=O [Astaxanthin]

Skin penetration rate of melatonin (Tryptophan isopropyl ester•HA 6% w/v, HA = 1/3H3PO4, water): 15.321 ± 1.497 μg/cm^2/h
Skin penetration rate of melatonin (Tryptophan isopropyl ester•HA 6% w/v, HA = Acetic acid, water): 15.456 ± 1.712 μg/cm^2/h
Skin penetration rate of melatonin (Tyrosine isopropyl ester•HA 6% w/v, HA = HCl, water): 16.313 ± 1.753 μg/cm^2/h
Skin penetration rate of AI compound (with D-tryptophan butyl ester hydrochloride 6 % w/v in water, AI compound 1 % w/v, 20 °C): 15.457 ± 1.435 μg/cm^2/h
Skin penetration rate of AI compound (with L-tryptophan ethyl ester hydrochloride 6 % w/v in water, AI compound 1 % w/v, 20 °C): 16.310 ± 1.236 μg/cm^2/h
Structure (SMILES): COc1ccc2[nH]cc(CCNC(C)=O)c2c1 [Melatonin]

Skin penetration rate of AI compound (with D-isoleucine isopropyl ester hydrochloride 6 % w/v in water, AI compound 0.5 % w/v, 25 °C): 16.318 ± 2.762 μg/cm^2/h
Structure (SMILES): Oc1ccc(C=Cc2cc(O)cc(O)c2)cc1 [Resveratrol]

Skin penetration rate of Al compound (2-(Diethylamino)ethyl 2-(4-isobutylphenyl)propionate hydrochloride 6% w/v, Al compound 0.5% w/v, water, 25 °C): 15.251 ± 2.015 μg/cm^2/h
Skin penetration rate of AI compound (with D-leucine isopropyl ester hydrochloride 6 % w/v in water, AI compound 0.5 % w/v, 25 °C): 13.138 ± 2.131 μg/cm^2/h
Skin penetration rate of AI compound (with L-leucine isopropyl ester hydrochloride 6 % w/v in water, AI compound 0.5 % w/v, 25 °C): 13.252 ± 2.123 μg/cm^2/h
Structure (SMILES): Cc1ncc(CO)c(CO)c1O.Cl [Vitamin B6]
